Laboratory results from US12049483B2, “Selective and noncovalent inhibitors of oncogenic RAS mutants” (New York University, priority 2020, dated 2024).

Key:
KRAS(G12C) [1] = biological target: T1, KRAS(G12C) (Homo sapiens, UniProt P01116, G12C); assay: BLI binding to KRAS(G12C); parameters: KRAS4B residues 1-174 containing G12C, G12V, G12D, G13D, Q61L, WT; His6 (N, cleaved yes); Avi-tag (N, cleaved yes); made in house; host or cells: E. coli BL21(DE3)
KRAS(WT) [2] = biological target: T2, KRAS(WT) (Homo sapiens, UniProt P01116); assay: BLI binding to KRAS(WT)
T2 construct: KRAS4B residues 1-174 containing G12C, G12V, G12D, G13D, Q61L, WT; made in house; host or cells: E. coli BL21(DE3) with pBirA

KRAS(G12V) [3] = biological target: T3, KRAS(G12V) (Homo sapiens, UniProt P01116, G12V); assay: BLI binding to KRAS(G12V); settings: nucleotide state GTPγS
T3 construct: KRAS4B residues 1-174 containing G12C, G12V, G12D, G13D, Q61L, WT; His6 (N, cleaved yes); Avi-tag (N, cleaved yes); made in house; host or cells: E. coli BL21(DE3)

KRAS(G12V) [4] = biological target: T3, KRAS(G12V); assay: Yeast display binding titration, KRAS(G12V); settings: GDP-bound
KRAS(G12S) = biological target: T4, KRAS(G12S) (Homo sapiens, UniProt P01116, G12S); assay: BLI binding to KRAS(G12S); settings: GTPγS, equilibrium mode
T4 construct: KRAS4B residues 1-174 containing G12C, G12V, G12D, G13D, Q61L, WT; His6 (N, cleaved yes); Avi-tag (N, cleaved yes); made in house; host or cells: E. coli BL21(DE3)

KRAS(G12A) = biological target: T5, KRAS(G12A) (Homo sapiens, UniProt P01116, G12A); assay: BLI binding to KRAS(G12A); settings: GTPγS, equilibrium mode
T5 construct: KRAS4B residues 1-174 containing G12C, G12V, G12D, G13D, Q61L, WT; His6 (N, cleaved yes); Avi-tag (N, cleaved yes); made in house; host or cells: E. coli BL21(DE3)

HRAS(G12C) 1-166 = biological target: T6, HRAS(G12C) 1-166 (Homo sapiens, UniProt P01112, G12C); assay: BLI binding to HRAS(G12C) 1-166
T6 construct: HRAS(WT) and HRAS(G12C) (residues 1-166) used for crystallization; His6 (N, cleaved yes); yeast SUMO (N, cleaved yes); made in house; host or cells: E. coli BL21(DE3)

KRAS(G12C) [5] = biological target: T1, KRAS(G12C); assay: Yeast display binding titration, KRAS(G12C); parameters: KRAS4B residues 1-174 containing G12C, G12V, G12D, G13D, Q61L, WT; His6 (N, cleaved yes); Avi-tag (N, cleaved yes); made in house; host or cells: E. coli BL21(DE3); settings: GDP-bound
KRAS(WT) [6] = biological target: T2, KRAS(WT); assay: Yeast display binding titration, KRAS(WT)
HRAS(WT) 1-166 = biological target: T7, HRAS(WT) 1-166 (Homo sapiens, UniProt P01112); assay: BLI binding to HRAS(WT) 1-166
T7 construct: HRAS(WT) and HRAS(G12C) (residues 1-166) used for crystallization; His6 (N, cleaved yes); yeast SUMO (N, cleaved yes); made in house; host or cells: E. coli BL21(DE3)

Kd (KRAS(G12C) [1]; BLI sensorgrams of 12VC3, n=3)	Kd (KRAS(WT) [2]; BLI sensorgrams of 12VC3, n=3)	Kd (KRAS(G12V) [3])	apparent KD (KRAS(G12V) [4])	Kd (KRAS(G12S))	Kd (KRAS(G12A))	KD (HRAS(G12C) 1-166; GDP-bound)	Kd (HRAS(G12C) 1-166; GTPγS bound, measured in duplicate)	apparent KD (KRAS(G12C) [5])	apparent KD (KRAS(WT) [6]; GDP-bound)	apparent KD (KRAS(WT) [6]; GTPγS-bound)	Kd (KRAS(G12C) [1]; BLI, nucleotide state GTPγS)	KD (HRAS(WT) 1-166)	Kd (KRAS(WT) [2]; BLI, GTPγS, equilibrium mode)	Sequence
21 ± 1.6 nM	1780 ± 748 nM	–	–	–	–	–	–	–	–	–	–	–	–	VSSVPTKLEVVAATPTSLLISWDAPAVTVFFYIIAYGETGHGVGAFQAFRVPGSKSTATISGLKPGVDYTITVYARGYSKQGPYKPSPISINYRT [12VC3]
–	–	~100 nM and 101 nM	too weak to yield meaningful KD	686 nM	718 nM	too high to be determined	28.3 nM and 35.9 nM	too weak to yield meaningful KD	too weak to yield meaningful KD	too weak to yield meaningful KD	24.7 nM	too high to be determined	9600 nM	VSSVPTKLEVVAATPTSLLISWDAPAVTVFFYVITYGETGHGVGAFQAFKVPGSKSTATISGLKPGVDYTITVYARGYSKQGPYKPSPISINYRT [12VC1]

Where “and” joins values, the source holds several entries; their conditions need not be identical. Equal entries are not always repeated.
